# Target: soluble rhTNFa (human) (UniProt P01375)
# Assay: SPR, Biacore 3000; antibody captured on immobilized goat anti-human IgG, soluble rhTNFa 1-100 nM as analyte; 1:1 Langmuir global fit
Substance,Kd [pM],koff [s⁻¹],kon [M⁻¹ s⁻¹]
D2E7 antibody produced using the pTT3-HcintLC-p. hori sORF construct (antibody; other documents disagree on this pair),35.4,5.69e-05,1.61e+06
D2E7 antibody produced from the manufacturing process (antibody; other documents disagree on this pair),38.9,6.72e-05,1.73e+06
